Laboratory results reported in publication PMC5548887 (Nature Communications, 2017).

Molecular target: T1, Ubiquitin (the Ub chain of the UbcH7-Ub conjugate in the crystal structure) (UniProt P0CG48, in part, C-terminal Gly76 isopeptide-linked to K86 of UbcH7)
T1 construct: ubiquitin (Ub), C-terminal glycine Gly76; The same chain as the second chain of m2, written alone for the pairs that touch in the structure; source: in the structure as part of the UbcH7-Ub conjugate
Experiment: crystal structure; HHARI/UbcH7-Ub complex, 3.5 Å, space group P6(5)22, one complex per asymmetric unit; crystals at 18 °C in 100 mM sodium cacodylate pH 6.17, 350 mM sodium acetate, 10% glycerol
Details: both partners purified

B1: HHARI full-length (residues 1-557) (enzyme, UniProt Q9Y4X5 1-557, looked up)
chain: MDSDEGYNYEFDEDEECSEEDSGAEEEEDEDDDEPDDDTLDLGEVELVEPGLGVGGERDGLLCGETGGGGGSALGPGGGGGGGGGGGGGGPGHEQEEDYRYEVLTAEQILQHMVECIREVNEVIQNPATITRILLSHFNWDKEKLMERYFDGNLEKLFAECHVINPSKKSRTRQMNTRSSAQDMPCQICYLNYPNSYFTGLECGHKFCMQCWSEYLTTKIMEEGMGQTISCPAHGCDILVDDNTVMRLITDSKVKLKYQHLITNSFVECNRLLKWCPAPDCHHVVKVQYPDAKPVRCKCGRQFCFNCGENWHDPVKCKWLKKWIKKCDDDSETSNWIAANTKECPKCHVTIEKDGGCNHMVCRNQNCKAEFCWVCLGPWEPHGSAWYNCNRYNEDDAKAARDAQERSRAALQRYLFYCNRYMNHMQSLRFEHKLYAQVKQKMEEMQQHNMSWIEVQFLKKAVDVLCQCRATLMYTYVFAFYLKKNNQSIIFENNQADLENATEVLSGYLERDISQDSLQDIKQKVQDKYRYCESRRRVLLQHVHEGYEKDLWEYIED
notes: HHARI (ARIH1), residues 1-557 (full-length); 6xHis-SMT3 tag removed with ULP1; ZnCl2 added before induction; also called ARIH1; HHARI^E2-Ub; source: E. coli BL21 (DE3) Codon Plus, purified (Ni-NTA, Superdex 200, MonoQ); not shown: His6, N-terminal, cleaved; SMT3, N-terminal, cleaved
binding result: binds
